Here are results for one molecule from US12595269B2, “Morpholine-like monoamine releasers” (Solvonis Therapeutics Ireland Holdings Limited, priority 2022, dated 2026).

The chains behind the UniProt entries cited, without tags or fusion partners.
UniProt P23977, whole entry: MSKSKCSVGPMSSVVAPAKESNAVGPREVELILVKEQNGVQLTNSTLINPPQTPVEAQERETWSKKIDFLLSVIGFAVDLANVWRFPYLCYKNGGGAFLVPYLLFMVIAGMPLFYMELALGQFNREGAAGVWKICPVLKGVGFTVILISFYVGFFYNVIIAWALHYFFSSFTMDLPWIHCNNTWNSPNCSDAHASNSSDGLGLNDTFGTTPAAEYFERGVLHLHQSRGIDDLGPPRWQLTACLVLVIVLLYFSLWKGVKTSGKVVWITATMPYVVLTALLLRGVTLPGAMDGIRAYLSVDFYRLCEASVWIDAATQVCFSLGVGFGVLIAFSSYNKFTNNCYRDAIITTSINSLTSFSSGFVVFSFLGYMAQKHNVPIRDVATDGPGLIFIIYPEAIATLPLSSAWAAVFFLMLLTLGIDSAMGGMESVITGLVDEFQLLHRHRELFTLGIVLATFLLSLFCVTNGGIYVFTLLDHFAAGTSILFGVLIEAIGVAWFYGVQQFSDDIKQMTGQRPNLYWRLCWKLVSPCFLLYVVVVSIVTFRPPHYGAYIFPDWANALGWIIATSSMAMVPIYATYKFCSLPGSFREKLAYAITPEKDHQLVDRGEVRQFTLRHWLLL
UniProt P31645, whole entry: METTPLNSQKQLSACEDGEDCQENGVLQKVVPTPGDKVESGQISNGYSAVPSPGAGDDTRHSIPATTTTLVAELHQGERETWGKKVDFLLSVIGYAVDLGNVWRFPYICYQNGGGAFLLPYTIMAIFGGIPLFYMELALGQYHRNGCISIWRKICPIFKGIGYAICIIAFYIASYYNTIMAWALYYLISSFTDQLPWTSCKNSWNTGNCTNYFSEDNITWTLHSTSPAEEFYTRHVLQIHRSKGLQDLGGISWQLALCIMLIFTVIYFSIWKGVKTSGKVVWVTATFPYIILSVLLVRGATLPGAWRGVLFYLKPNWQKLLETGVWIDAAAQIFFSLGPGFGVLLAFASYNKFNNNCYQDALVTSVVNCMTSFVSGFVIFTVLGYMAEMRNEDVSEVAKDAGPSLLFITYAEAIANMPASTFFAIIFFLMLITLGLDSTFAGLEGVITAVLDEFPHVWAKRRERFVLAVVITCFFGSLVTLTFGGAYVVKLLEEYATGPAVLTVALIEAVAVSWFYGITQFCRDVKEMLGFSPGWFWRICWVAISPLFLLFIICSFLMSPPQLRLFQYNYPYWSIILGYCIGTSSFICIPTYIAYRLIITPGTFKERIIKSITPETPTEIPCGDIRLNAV
UniProt Q01959, whole entry: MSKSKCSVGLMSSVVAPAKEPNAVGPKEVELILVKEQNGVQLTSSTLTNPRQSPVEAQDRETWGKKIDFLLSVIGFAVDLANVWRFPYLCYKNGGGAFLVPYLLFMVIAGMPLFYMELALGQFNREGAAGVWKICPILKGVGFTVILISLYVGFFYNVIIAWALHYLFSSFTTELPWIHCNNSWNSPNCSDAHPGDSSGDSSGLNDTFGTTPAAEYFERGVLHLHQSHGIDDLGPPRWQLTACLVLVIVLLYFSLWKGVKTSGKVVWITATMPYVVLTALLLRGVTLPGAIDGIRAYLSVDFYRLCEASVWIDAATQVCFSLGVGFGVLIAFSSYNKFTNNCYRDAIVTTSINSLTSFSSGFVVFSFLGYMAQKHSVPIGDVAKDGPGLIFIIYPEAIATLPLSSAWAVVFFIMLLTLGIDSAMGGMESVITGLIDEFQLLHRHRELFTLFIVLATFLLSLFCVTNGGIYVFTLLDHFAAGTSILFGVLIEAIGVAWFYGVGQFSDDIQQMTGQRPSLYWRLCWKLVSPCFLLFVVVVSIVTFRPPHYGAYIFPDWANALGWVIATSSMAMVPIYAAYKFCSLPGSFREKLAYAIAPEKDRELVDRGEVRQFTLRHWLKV
UniProt P08183, whole entry: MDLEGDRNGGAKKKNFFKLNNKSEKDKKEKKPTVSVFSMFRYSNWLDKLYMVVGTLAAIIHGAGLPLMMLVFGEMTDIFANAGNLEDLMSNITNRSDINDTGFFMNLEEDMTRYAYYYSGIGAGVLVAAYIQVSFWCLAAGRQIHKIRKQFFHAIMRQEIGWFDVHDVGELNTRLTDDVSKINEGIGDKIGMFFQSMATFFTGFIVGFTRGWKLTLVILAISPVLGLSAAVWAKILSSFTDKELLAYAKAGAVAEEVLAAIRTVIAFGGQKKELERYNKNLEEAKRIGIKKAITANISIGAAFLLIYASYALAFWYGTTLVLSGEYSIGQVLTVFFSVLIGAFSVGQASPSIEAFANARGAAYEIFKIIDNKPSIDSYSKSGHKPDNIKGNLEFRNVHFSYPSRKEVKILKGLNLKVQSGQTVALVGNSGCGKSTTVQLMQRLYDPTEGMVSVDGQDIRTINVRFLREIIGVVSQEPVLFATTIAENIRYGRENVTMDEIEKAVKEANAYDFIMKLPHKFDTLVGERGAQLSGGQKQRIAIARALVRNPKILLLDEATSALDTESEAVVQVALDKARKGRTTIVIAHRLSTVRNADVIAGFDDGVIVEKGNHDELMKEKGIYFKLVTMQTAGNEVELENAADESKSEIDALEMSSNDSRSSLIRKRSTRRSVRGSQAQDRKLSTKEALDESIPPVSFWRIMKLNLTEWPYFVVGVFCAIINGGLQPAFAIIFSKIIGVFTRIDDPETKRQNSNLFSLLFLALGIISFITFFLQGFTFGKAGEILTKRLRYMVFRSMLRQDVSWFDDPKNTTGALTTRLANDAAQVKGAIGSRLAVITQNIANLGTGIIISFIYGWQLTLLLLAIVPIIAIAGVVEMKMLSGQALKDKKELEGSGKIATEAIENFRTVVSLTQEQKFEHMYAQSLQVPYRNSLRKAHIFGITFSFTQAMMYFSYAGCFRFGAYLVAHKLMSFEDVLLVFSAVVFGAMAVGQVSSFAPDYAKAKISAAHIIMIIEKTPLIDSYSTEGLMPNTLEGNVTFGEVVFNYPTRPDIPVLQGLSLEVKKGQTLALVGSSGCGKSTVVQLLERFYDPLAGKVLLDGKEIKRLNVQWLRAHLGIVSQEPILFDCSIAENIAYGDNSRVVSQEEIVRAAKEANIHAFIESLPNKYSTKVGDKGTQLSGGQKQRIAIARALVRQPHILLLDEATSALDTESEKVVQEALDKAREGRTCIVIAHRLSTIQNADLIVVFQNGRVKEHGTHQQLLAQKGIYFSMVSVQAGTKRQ
UniProt P31652, whole entry: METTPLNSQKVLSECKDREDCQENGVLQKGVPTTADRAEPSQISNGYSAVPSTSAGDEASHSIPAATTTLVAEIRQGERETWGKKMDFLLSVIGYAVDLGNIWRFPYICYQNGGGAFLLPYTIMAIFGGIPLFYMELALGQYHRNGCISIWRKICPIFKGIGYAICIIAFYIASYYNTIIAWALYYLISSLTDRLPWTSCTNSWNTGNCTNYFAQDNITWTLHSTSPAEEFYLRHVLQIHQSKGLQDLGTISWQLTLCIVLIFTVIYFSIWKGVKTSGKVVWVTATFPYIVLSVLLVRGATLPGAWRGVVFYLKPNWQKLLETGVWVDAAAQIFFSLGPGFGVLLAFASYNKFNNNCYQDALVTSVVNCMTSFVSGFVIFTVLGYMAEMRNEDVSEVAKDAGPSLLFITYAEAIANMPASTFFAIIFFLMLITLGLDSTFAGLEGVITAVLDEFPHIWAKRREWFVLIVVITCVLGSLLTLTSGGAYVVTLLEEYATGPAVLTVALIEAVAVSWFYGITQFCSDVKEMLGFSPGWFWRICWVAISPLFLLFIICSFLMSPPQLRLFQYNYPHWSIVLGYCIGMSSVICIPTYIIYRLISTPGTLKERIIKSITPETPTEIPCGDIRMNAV

Data set [1] can be described thus: Lipophilicity by Chromatographic Hydrophobicity Index (CHI LogD). Type of data set: physicochemical. The following applies: pH 7.4, HPLC-UV. As to the method: Methods and Procedure: The methods employed herein comply with previously described procedures to assure data integrity and adherence to GLP regulations. Briefly, a CHI value was determined by comparing the retention time of a test compound to a linear curve based on a set of calibration compounds with known CHI values. The resultant CHI value can be further converted to a CHI Log D value using an established linear regression equation.
Reference compounds with known CHI values, including theophylline, phenyltetrazole, benzymidazole, colchicine, phenyltheophylline, acetophenone, indole, propiophenone, butyrophenone, valerophenone, were used to create a calibration line. Test compounds (10 mM) were prepared in DMSO on the same day of the experiment, when feasible. For sample preparation, 10 μL of test solution was diluted with 190 μL of a solution of Ammonium Acetate solution (50 mM) and Acetonitrile (1:1) pH7.4, which was then mixed via shaking at room temperature for 10 minutes. Test solutions were compared with the reference compounds via HPLC-UV, as described in Example 19. The gradient was calibrated by determining the retention time of each reference compound on a reverse phase LC system at a pH of 7.4. […]
The test compounds were analyzed on the same system as the test mix. […]

The subject of data set [2] is MDCKII cells. Kind of data set: Apparent permeability (Papp AB) in MDCKII cells. The following applies: pH 7.4, apical to basolateral, 60 min.
The target of data set [3] is DAT (dopamine release) (Rattus norvegicus, UniProt P23977). Kind of data set: Dopamine release filtration assay in rat striatal synaptosomes. Type of data set: cell-based. The following applies: % of release by 50 μM MDMA. The protocol: (§1) Methods and Procedure—Release: The potency of the disclosed compounds for stimulating dopamine (DA) release was measured by an endpoint release filtration assay in a 96-well format using rat synaptosomes, essentially as described by Sandtner et al., Mol. Pharmacol., 2016; 89(1):165-75, and Baumann et al., Neuropsychopharmacol., 2013; 38:552-562, with some variations.
One male rat was sacrificed and striatum/cortex regions were dissected over ice. The striatum portions were weighed and put in a glass tube for homogenization, containing ice-cold 0.32 M sucrose (dilution 1:24 w/v), while the frontal cortex tissue was diluted in ice-cold 0.32 M sucrose, 1:20 w/v. Tissues were homogenized and centrifuged for 10 mins at 1000×g. […]
^3H-Dopamine was added to the tube containing the crude striatal synaptosomes preparation, diluted 1:20 (v/v) in complete Krebs-phosphate buffer, and was incubated at RT and gently mixed for 60 minutes. […] The retained radioactivity was counted in a scintillation counter after the addition of 50 μL/well Microscint-20.
The raw data (cpm) from residual radioactivity onto the filter were elaborated for the determination of pEC50/EC50 values. Specifically, the compound effect was expressed as the percent of maximal release obtained with 50 μM MDMA (100% release) in comparison to vehicle (0.5% DMSO, 0% release). […]

Data set [4] concerns the target SERT (serotonin transporter) (Homo sapiens, UniProt P31645). Description: SERT uptake scintillation proximity assay, inhibition of [3H]-serotonin uptake in hSERT-CHO cells. Type of data set: cell-based. The protocol: (§2) Overview: Eighty-eight compounds were tested in SERT (serotonin transporter) and DAT (dopamine transporter) uptake assays (completed as scintillation proximity assays, or SPAs, in a recombinant CHO cell line). Fifty-two compounds were tested in release assays for 5-HT and DA release in rat synaptosomes.
In addition, hSERT-CHO cells were detached using Versene and added at a density of 150,000 cells/mL to the SPA Mixture, which contains the following components in the Assay Buffer described above: 0.5 mg/mL SPA Imaging beads (RPNQ0001, PerkinElmer), 10 μM pargyline and 35 nM of [^3H]-serotonin (NET498, PerkinElmer). […] Plates were sealed with a Top-seal A and read using a Microbeta counter (PerkinElmer) after 120 minutes of incubation at room temperature.
For both tests, the raw experimental data (cpm) were elaborated for the determination of pIC50/IC50 values as % inhibition of specific uptake. Concentration-response curves of MDMA, MDDMA, citalopram and GBR-12909 were used as internal standards in all experiments, and the signal window was monitored in each plate performing Z′ calculations, as described in Zhang et al., J. Biomol. […]
(In general: In a scintillation proximity assay essentially only radioactivity close to the scintillant gives light.)

The nature of data set [5]: In vitro intrinsic clearance in rat liver microsomes. For orientation: Liver microsomes are a subcellular fraction often used to study metabolism.
In data set [6] the target is human DAT (Homo sapiens, UniProt Q01959). Kind of data set: DAT uptake scintillation proximity assay, inhibition of [3H]-dopamine uptake in hDAT-CHO cells. It counts as cell-based. As to the method:
as §2
Methods and Procedure-Uptake: The potency of the compounds described herein for inhibiting DAT function was measured using an uptake assay in a recombinant CHO cell line stably expressing human DAT (hDAT-CHO). Potency was measured in terms of pIC50 by testing for inhibition of [^3H]-dopamine uptake in hDAT-CHO cells in a 384-well format scintillation proximity assay (SPA).
Briefly, on experiment days, hDAT-CHO cells were detached using Versene and added at a density of approximately 300,000 cells/mL to the SPA Mixture, which contains the following components in Assay Buffer (20 mM HEPES, 145 mM NaCl, 5 mM KCl, 2 mM CaCl2, 1 mM MgCl2, 5.5 mM glucose, 0.01% Pluronic F127, pH 7.3): 0.75 mg/mL SPA Imaging beads (RPNQ0001, PerkinElmer), 10 μM pargyline and 80 nM of [^3H]-dopamine (NET673, PerkinEImer). […] Plates were sealed with a Top-seal A and read using a Microbeta counter (PerkinEImer) after 45 minutes of incubation at room temperature. […]

For data set [7], the target named is human P-glycoprotein transporter (Homo sapiens, UniProt P08183). Description: P-gp substrate assessment, efflux ratio in MDCKII-MDR1 cells.
Data set [8] is described as follows: In vitro intrinsic clearance in human liver microsomes.
Data set [9] deals with SERT (serotonin release) (Rattus norvegicus, UniProt P31652). Kind of data set: Serotonin release filtration assay in rat cortex synaptosomes. The note with it: % of release by 50 μM MDMA. Type of data set: cell-based. The protocol:
as §1
One male rat was sacrificed and striatum/cortex regions were dissected over ice. The striatum portions were weighed and put in a glass tube for homogenization, containing ice-cold 0.32 M sucrose (dilution 1:24 w/v), while the frontal cortex tissue was diluted in ice-cold 0.32 M sucrose, 1:20 w/v. Tissues were homogenized and centrifuged for 10 mins at 1000×g. The two supernatants from striatum and cortex (crude synaptosomes) were retained on ice until use.
Test compounds were then serially diluted 1:4 in neat DMSO as concentration-response curves (CRC) of 11 points. […]
The raw data (cpm) from residual radioactivity onto the filter were elaborated for the determination of pEC50/EC50 values. Specifically, the compound effect was expressed as the percent of maximal release obtained with 50 μM MDMA (100% release) in comparison to vehicle (0.5% DMSO, 0% release). […] In each plate, for both 0% and 100% of release, the signal window is monitored performing Z′ calculations using raw data of four replicates. […]

In data set [1], `Cc1ccc(C23CNC(CO2)C3)cc1C` (racemic) came in with a Chi LogD of 0.84. For the same molecule, in data set [2], the “Papp AB in MDCKII cells” value was 24.4 ×10⁻⁶ cm/s. Besides, the “DAT release pEC50” value in [3] was found to be 4.71. In data set [4], the “SERT uptake pIC50” value stood at 6.52. Moreover, the “Intrinsic clearance (μL/min/mg protein) rat” value in data set [5] was 136 μL/min/mg protein. For the same molecule, the “DAT update pIC50” value in data set [6] is given as 4.77. In addition, the “Substrate Classification” value in [7] (P-gp substrate classification, MDCKII-MDR1 cells) was “pGP-NO”. The B/A ratio in MDCKII-MDR1 cells in data set [7] (efflux ratio, P-gp substrate if ratio >2 and reduced by inhibitor) was 0.81. The “Intrinsic clearance (μL/min/mg protein) human” value in data set [8] is on record as 12 μL/min/mg protein. Besides, in data set [9], the “SERT release pEC50” value is on record as 7.33.
